From patent US20100273831A1, “FLUORO ALKYL SUBSTITUTED BENZIMIDAZOLE CANNABINOID AGONISTS” (priority 2007, published 2010)

The chains behind the UniProt entries cited, without tags or fusion partners.
UniProt P34972, whole entry: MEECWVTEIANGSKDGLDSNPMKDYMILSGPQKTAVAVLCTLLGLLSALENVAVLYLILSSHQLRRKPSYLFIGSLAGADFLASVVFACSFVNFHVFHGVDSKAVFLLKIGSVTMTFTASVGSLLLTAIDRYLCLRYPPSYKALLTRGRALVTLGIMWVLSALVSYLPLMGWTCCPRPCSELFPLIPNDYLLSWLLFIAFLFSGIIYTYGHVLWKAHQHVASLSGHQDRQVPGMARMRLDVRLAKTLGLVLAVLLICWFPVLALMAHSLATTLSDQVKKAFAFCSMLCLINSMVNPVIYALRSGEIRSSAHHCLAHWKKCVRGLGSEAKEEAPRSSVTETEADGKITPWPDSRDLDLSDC
UniProt P21554, whole entry: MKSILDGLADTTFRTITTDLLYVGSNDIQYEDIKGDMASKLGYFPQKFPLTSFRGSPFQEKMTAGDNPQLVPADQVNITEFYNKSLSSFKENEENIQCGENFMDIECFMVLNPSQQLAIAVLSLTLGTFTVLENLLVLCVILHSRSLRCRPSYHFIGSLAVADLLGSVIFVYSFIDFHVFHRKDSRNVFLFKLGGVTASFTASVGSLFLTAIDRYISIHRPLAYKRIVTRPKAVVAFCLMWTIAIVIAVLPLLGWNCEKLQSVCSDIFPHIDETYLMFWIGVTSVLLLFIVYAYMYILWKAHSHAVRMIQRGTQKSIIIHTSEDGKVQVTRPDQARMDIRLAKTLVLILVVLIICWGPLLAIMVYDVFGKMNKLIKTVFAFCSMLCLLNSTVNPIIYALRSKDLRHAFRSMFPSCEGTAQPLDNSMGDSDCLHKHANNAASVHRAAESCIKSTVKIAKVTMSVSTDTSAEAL

What was measured:
[1] = molecular target: human CB2 (hCB2) receptor (Homo sapiens, UniProt P34972); assay: Inhibition of forskolin-activated cAMP production upon activation of human CB2 receptor (HTRF assay, CHO-K1 cells); assay type: cell-based; details: agonism; CHO-K1 cells stably transfected with hCB2; pEC50=-log(EC50); relative to WIN55212-2
Experimental: (§1) Functional activity of the test compounds was assessed by measuring their potency to inhibit forskolin-activated cAMP production upon activation of the human CB1 (hCB1) or human CB2 (hCB2) receptor through homogenous time resolved fluorescence (HTRF) assays.
(§2) CHO-K1 cells stably transfected with either hCB1 or hCB2 were grown up to 80-90% confluence in T175 Falcon flasks in DMEM/NUT MIX F-12 culture medium complemented with 2% Solution A (5.10^6 IU/1 penicillin G, 5 g/l streptomycin sulphate, 5.5 g/l pyruvate, 14.6 g/l L-glutamine, 1M NaOH) and 10% foetal calf serum. Before the experiments, medium was removed, cells were washed with PBS/EDTA (140 mM NaCl, 1 mM Na2-EDTA, 8 mM Na2HPO4.2H2O, 8.5 mM KH2PO4, 2.7 mM KCl, 21 mM glucose), resuspended in stimulation buffer (HBSS 1×, IBMX 1 mM, Hepes 5 mM, MgCl2 10 mM, BSA 0.1%, pH 7.4). Cells were diluted to a concentration of 8.10^5 cell/ml for hCB1 experiments and 10^6 cells/ml for hCB2 experiments. Assays were performed using the cAMP Dynamic HTRF kit (CIS bio international, France) according to the recommendations of the manufacturer. […]
(§3) After equilibration of the reaction mixtures for 1 to 24 hours in dark at room temperature, fluorescence was measured at 665 nm and 620 nm using a Discovery microplate fluorescence counter (Perkin Elmer), and the signal ratio of 665 nm/620 nm was calculated. […]

[2] = molecular target: human CB1 (hCB1) receptor (Homo sapiens, UniProt P21554); assay: Inhibition of forskolin-activated cAMP production upon activation of human CB1 receptor (HTRF assay, CHO-K1 cells); assay type: cell-based; details: agonism; CHO-K1 cells stably transfected with hCB1; pEC50=-log(EC50); relative to CP55490
Experimental: as §1, §2, §3

CC(C)(C)c1nc2cc(Sc3ccc(C#N)cc3)ccc2n1CCCCC(F)(F)F
CB-2 pEC50 [1]: 8.8
CB-1 pEC50 [2]: 8.3
